Test results reported in patent US12246008B2, “4-amino or 4-alkoxy-substituted aryl sulfonamide compounds with selective activity in voltage-gated sodium channels” (Merck Sharp & Dohme LLC, priority 2018, dated 2025).

By UniProt entry, the sequences of proteins in these tests, tags left out.
UniProt Q15858, whole entry: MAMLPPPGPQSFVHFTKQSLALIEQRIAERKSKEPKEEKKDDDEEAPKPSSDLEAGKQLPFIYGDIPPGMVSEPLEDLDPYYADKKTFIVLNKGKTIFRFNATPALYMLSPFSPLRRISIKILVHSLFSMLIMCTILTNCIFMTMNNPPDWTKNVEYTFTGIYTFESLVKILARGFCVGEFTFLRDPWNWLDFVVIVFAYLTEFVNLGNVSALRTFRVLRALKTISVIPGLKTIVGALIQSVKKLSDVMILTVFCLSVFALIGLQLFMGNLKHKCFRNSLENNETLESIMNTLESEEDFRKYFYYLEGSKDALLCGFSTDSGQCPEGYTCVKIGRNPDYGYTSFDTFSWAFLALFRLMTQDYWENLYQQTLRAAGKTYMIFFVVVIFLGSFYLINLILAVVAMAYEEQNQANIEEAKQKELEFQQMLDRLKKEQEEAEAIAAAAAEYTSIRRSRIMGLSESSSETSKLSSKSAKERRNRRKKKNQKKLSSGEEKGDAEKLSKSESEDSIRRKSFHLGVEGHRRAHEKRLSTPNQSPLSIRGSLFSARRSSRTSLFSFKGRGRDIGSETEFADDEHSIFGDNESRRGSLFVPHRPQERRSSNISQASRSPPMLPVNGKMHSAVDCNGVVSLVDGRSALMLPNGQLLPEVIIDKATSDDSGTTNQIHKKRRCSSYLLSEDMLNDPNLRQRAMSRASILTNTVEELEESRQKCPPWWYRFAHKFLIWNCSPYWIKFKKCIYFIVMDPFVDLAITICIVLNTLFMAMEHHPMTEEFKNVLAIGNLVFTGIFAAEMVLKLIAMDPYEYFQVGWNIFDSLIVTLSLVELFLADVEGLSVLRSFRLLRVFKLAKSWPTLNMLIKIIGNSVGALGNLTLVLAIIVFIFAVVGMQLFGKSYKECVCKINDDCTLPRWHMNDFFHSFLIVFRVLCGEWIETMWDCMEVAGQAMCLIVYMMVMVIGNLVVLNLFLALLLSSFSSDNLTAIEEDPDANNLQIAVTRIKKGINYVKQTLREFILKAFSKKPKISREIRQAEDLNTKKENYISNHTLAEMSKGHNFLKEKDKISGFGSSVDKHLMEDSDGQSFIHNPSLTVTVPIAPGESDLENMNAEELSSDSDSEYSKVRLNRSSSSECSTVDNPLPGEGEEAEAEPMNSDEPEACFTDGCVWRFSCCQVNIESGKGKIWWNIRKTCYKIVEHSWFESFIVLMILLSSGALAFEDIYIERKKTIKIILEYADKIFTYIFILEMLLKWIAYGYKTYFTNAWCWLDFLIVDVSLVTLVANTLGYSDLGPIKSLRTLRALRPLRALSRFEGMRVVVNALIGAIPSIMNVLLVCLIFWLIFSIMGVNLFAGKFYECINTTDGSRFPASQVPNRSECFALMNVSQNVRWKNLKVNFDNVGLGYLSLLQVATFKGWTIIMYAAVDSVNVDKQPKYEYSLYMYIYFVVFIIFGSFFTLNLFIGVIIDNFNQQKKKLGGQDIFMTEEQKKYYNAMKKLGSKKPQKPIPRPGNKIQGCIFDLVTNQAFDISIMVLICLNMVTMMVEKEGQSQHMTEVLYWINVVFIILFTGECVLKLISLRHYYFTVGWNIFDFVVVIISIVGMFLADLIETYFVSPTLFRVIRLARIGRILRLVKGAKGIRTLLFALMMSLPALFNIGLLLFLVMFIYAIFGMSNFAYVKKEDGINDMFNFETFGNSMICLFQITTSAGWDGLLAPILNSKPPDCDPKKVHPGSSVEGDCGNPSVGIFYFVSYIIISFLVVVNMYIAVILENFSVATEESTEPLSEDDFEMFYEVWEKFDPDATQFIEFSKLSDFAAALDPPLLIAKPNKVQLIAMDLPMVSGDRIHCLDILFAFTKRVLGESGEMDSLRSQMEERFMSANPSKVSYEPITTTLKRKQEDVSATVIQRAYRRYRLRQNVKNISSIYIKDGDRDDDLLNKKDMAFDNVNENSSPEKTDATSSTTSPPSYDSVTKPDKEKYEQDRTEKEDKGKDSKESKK
UniProt Q9UQD0, whole entry: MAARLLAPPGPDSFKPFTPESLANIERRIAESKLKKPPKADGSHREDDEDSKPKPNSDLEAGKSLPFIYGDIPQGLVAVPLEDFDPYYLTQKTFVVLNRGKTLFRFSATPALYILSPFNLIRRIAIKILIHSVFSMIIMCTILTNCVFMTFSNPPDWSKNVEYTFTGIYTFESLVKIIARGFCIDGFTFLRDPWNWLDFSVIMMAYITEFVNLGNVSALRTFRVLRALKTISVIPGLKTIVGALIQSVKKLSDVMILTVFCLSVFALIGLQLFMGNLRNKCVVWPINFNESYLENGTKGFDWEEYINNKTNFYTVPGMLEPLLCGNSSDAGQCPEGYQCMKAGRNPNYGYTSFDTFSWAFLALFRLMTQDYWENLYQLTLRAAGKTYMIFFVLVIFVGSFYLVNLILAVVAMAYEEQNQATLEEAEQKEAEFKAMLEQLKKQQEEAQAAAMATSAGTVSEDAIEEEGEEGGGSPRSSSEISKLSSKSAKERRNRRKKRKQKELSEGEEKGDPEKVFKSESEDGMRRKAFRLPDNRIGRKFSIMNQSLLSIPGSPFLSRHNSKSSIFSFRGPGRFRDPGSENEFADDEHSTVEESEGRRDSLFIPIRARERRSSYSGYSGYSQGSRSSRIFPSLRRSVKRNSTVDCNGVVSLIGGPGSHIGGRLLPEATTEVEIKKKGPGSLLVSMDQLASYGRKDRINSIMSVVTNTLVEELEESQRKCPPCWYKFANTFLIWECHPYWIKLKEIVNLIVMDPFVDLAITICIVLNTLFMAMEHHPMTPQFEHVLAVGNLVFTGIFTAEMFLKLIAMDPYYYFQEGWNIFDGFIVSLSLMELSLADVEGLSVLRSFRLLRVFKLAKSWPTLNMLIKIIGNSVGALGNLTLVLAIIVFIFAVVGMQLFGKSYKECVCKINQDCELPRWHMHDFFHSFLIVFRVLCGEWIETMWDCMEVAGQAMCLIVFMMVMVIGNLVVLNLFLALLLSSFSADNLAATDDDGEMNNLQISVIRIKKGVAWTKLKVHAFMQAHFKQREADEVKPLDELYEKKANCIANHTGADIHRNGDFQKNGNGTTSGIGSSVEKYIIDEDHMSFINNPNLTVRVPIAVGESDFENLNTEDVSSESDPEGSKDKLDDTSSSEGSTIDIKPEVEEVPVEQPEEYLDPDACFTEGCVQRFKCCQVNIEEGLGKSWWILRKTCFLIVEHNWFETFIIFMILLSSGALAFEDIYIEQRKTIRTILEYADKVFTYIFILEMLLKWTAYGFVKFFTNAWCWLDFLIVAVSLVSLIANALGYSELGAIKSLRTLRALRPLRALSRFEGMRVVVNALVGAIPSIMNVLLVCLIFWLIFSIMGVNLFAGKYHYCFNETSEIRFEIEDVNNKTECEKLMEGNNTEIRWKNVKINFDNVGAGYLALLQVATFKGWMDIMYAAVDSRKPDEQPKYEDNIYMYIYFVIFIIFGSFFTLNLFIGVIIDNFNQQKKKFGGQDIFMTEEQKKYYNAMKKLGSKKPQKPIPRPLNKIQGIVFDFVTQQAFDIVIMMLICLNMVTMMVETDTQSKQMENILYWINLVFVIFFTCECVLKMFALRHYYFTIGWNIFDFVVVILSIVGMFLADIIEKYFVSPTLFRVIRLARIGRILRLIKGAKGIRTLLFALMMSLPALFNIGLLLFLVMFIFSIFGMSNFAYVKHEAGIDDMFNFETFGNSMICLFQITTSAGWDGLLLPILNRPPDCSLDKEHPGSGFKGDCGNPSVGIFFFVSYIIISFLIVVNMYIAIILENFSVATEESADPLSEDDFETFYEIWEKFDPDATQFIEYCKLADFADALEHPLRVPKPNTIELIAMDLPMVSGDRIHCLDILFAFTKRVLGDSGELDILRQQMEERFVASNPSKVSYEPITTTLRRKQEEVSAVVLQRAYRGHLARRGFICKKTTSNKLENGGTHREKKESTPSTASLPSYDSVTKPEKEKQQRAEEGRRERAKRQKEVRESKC
UniProt Q14524, whole entry: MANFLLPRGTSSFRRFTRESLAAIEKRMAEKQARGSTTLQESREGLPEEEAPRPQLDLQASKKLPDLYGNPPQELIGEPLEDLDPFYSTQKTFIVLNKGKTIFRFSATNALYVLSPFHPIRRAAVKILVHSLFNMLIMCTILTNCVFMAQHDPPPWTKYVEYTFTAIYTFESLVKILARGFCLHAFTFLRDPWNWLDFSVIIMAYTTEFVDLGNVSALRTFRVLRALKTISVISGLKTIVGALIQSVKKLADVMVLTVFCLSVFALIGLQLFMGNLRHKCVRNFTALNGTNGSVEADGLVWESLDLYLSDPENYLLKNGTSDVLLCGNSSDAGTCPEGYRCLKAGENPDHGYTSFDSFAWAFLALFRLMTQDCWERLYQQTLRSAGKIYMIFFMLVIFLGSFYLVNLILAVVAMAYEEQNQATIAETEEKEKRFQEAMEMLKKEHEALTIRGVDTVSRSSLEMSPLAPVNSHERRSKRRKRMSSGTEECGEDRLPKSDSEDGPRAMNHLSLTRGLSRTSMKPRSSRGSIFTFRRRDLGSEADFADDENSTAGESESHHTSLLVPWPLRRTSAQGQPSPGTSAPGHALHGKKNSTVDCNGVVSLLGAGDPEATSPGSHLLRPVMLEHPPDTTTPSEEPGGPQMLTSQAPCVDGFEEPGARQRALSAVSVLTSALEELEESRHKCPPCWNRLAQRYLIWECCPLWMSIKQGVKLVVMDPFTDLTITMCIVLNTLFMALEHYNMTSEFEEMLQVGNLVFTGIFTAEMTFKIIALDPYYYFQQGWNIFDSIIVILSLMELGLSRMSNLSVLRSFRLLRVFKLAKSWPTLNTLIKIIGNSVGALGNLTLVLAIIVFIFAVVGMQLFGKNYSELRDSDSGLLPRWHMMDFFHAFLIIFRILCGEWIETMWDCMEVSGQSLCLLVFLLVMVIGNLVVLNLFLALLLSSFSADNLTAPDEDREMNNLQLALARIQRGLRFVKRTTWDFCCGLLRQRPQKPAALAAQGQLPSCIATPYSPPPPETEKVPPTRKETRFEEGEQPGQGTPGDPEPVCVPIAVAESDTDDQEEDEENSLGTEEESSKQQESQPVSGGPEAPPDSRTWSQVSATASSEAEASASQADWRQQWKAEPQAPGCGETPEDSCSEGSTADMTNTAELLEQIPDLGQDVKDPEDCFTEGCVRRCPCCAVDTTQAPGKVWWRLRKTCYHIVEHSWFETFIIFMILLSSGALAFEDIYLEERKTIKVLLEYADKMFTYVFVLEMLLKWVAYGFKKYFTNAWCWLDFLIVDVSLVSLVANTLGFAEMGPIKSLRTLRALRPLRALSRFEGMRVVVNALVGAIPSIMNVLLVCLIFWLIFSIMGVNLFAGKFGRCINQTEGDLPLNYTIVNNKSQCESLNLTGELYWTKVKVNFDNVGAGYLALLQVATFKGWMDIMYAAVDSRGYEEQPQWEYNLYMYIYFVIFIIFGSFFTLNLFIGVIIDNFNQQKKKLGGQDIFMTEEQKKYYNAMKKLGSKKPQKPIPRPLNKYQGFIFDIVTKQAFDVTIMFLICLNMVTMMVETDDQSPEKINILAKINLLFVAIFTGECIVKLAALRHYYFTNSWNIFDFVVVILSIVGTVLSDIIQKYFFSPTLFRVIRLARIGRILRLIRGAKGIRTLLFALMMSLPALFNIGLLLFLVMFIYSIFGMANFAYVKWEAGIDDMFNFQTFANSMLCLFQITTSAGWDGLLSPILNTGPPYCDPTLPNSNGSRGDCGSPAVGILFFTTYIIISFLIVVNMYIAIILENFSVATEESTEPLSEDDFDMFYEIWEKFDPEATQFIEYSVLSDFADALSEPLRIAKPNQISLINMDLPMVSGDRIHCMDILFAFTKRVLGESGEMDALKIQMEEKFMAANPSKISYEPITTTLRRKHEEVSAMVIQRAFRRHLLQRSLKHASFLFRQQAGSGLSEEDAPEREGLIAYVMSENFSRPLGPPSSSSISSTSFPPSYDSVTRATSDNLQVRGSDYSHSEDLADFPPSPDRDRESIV

How the values were obtained:
Experiment in all cases: Qube automated patch-clamp assay, inhibition of sodium current
[1] = target: human Nav1.7 channels stably expressed in HEK 293 cells (Homo sapiens, UniProt Q15858); conditions: read-out: NaV1.7 (nM); −80 mV; holding potential −80 mV; max concentration tested 33750 nM
Method: (§1) Qube™ Experimental Procedure:
(§2) Compounds were tested on human Nav1.7 and Nav1.6 channels stably expressed in HEK 293 cells. Sodium current measurements on the Qube: An automated patch-clamp assay on the Qube platform (Sophion Bioscience) was used to measure inhibition of human Nav1.7 and 1.6 channels. Cells were sealed on a planar substrate using the multihole technology. Cells expressing human Nav1.7 channels were held at −75 mV or −80 mV. Cells expressing human Nav1.6 channels were held at −65 mV. A train of 6 consecutive test pulses to −10 mV, preceded by 8 s prepulses to −115 mV, was applied at a frequency of 0.1 Hz before and after compound addition. Cells in each Qchip well were incubated in compound for 5 minutes before measuring inhibition. Peak currents were measured in control conditions and after compound addition. The following recording solutions were used (mM). External Nav1.6: 150 NaCl, 2 CaCl2), 5 KCl, 1 Mg Cl2, 10 HEPES, 12 Dextrose; external Nav1.7: 40 NaCl, 120 NMDG, 1 KCl, 0.5 MgCl2, 5 HEPES, 2.7 CaCl2); internal: 120 CsF, 30 CsCl, 10 EGTA, 5 HEPES, 5 NaF, 2 MgCl2. Compounds were prepared as 10 mM stock solutions in DMSO. 10 point compound titrations were generated using the Echo acoustic liquid handling instrument and glass coated 384 well plates. The final DMSO concentration in the assay was 0.3%. […] IC50 values were determined by fitting to the Hill equation. […]

[2] = target: human Nav1.6 channels stably expressed in HEK 293 cells (Homo sapiens, UniProt Q9UQD0); conditions: read-out: NaV1.6 (nM); −65 mV; holding potential −65 mV; max concentration tested 33750 nM
Method: as §1, §2

NaV1.5 = NaV1.5 (Homo sapiens, UniProt Q14524); conditions: read-out: Nav1.5 (nM); −80 mV; holding potential −80 mV; max concentration tested 33750 nM
Method: as §2

`C[C@@H](N)[C@H](CNc1ccc(S(=O)(=O)Nc2ncns2)cc1Cl)CC1(CCN)CCC1` showed an IC50 [1] of 27 nM, an IC50 [2] of 10400 nM and an IC50 (NaV1.5) of over 33800 nM.
